Source: ChEMBL document CHEMBL6083290, “Proline Analogues in Drug Design: Current Trends and Future Prospects” (J Med Chem, 2024)

Chains of the proteins cited; added tags and fusions are not shown. Lines headed by an entry give the natural chain unless they say otherwise; changes in a name come on top.
UniProt P14780: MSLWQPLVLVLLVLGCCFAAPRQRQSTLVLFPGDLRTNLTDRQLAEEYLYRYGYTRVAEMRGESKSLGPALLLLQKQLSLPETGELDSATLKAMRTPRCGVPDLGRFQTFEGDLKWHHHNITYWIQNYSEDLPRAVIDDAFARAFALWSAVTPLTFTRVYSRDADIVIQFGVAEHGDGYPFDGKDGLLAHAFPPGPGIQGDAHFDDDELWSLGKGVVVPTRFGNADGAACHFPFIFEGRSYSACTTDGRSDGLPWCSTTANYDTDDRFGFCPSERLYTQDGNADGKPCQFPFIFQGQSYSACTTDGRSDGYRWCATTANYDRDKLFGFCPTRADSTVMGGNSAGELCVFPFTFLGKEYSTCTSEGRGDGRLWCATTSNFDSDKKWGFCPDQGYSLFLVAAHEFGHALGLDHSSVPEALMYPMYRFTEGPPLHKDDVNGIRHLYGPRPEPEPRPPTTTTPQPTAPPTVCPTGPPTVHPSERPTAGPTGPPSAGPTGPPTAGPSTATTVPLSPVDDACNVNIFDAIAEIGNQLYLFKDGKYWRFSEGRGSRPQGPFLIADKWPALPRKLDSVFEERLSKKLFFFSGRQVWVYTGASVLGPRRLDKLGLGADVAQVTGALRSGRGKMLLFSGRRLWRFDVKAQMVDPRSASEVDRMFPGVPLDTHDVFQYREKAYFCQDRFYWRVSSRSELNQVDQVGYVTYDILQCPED

Biological target: Matrix metalloproteinase-9 (Homo sapiens) (UniProt P14780)

IC5: 0.56 µM
Structure (SMILES): COc1ccc(C(=O)N[C@@H]2C[C@H](C(=O)NO)N(S(=O)(=O)c3ccc(Cl)c(Cl)c3)C2)c(OC)c1
